Apparent affinities of Ab-14 variants for a coronavirus HR2 peptide

Binding partner: SARS-CoV-2 spike HR2 peptide, sequence PDVDLGDISGINAS.

Parent scFv Ab-14: VH joined to VL by a 15-residue (Gly4Ser)3 linker. Changes lie in the light chain CDRs alone.
VH: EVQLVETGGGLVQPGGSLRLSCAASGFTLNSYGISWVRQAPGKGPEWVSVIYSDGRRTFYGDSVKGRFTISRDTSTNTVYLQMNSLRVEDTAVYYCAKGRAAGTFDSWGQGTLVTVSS
VL: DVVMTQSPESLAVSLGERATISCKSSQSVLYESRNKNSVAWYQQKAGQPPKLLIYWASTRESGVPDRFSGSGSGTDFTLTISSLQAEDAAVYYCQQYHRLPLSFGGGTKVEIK

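The starting antibody came from a phage panning campaign against this peptide. These sequences belong to a second round, designed from the earlier measurements on random variants of the parent. Their group label is 14L_GP_Gen (GP: Gaussian process model; Gen: genetic algorithm; a sequence that several methods proposed may carry one label only). In AlphaSeq, yeast of one mating type display the scFv and yeast of the other type display the target. Mating (16 h, 30 °C) was followed by selection of diploids and sequencing of their barcodes. Scores were corrected for input abundance and mapped to Kd with protein pairs of known affinity run in the same pool. There are six technical replicates.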

Each variant is given by its three light chain CDRs, as the data file delimits them; those of the parent are KSSQSVLYESRNKNSVA, WASTRES, QQYHRLPLS. The read-out is the apparent dissociation constant on a log10 scale (nM): the lower, the stronger. The authors' rule: three or more of the six replicates give a measured affinity, fewer mean a poor binder.

CDR-L1	CDR-L2	CDR-L3	log10 Kd (nM) by replicate	signal with controls
KLSQSVPYESRNKNSVA	NASTRLS	QQYHRLPLS	-0.22 / -0.09 / -0.26 / -0.11 / -0.06 / -0.03	0/18
KLSMSVLYESRNKNSVA	DASQRES	QQYHRLPLS	-0.31 / -0.64 / -0.70 / -0.36 / -0.63 / -0.43	0/18
KLSQSVLYESRNKASVA	EASTRES	QQYHRLPLS	0.32 / 0.07 / -0.08 / 0.03 / -0.04 / 0.18	0/18
YLSQSQLYESRNKNSVA	NASTRES	QQYHRLPLS	0.27 / 0.05 / 0.06 / 0.00 / 0.19 / 0.24	2/18 (4.04)
KVSQSVLYESRNKNSVA	NASTRES	QQYHRLPLY	-0.16 / -0.28 / -0.26 / -0.46 / -0.26 / -0.30	2/18 (2.53)
KLPQSVLYESRNKNSVA	NASQRMS	QQYHRLPLS	-0.18 / 0.00 / -0.22 / -0.25 / -0.25 / -0.15	1/18 (2.80)
KVSQSVLYESRNKNSVA	NASTREA	QQYHRLPLS	-0.22 / -0.48 / -0.53 / -0.59 / -0.60 / -0.19	3/18 (2.69)
KLSQSVLYESRNKNSVA	NASQRLS	QDYHRLPLS	0.17 / -0.01 / -0.14 / 0.01 / -0.12 / 0.11	3/18 (2.70)
KLSQSYLYESRNKNSVA	NASQREV	QQYHRLPLS	-0.15 / -0.33 / -0.27 / -0.45 / -0.32 / -0.01	1/18 (2.22)
KLSQSWLYESRNKNSVA	NASTRED	QQYHRLPLS	-0.28 / -0.74 / -0.62 / -0.73 / -0.45 / -0.38	1/18 (0.96)
KVSQSNLYESRNKNNVA	NASTRES	QQYHRLPLS	0.42 / 0.39 / 0.39 / 0.27 / 0.19 / 0.51	0/18
GLSQSVLYESRNKNSVA	NASTRES	QQYHRLPLS	-0.49 / -0.44 / -0.59 / -0.55 / -0.54 / -0.38	0/18
KLPQSVLYESRNKNSVA	EASQRES	QQYHRLPLS	0.07 / -0.34 / -0.10 / -0.36 / -0.28 / 0.06	0/18
KQSQSVLYESRNKNNVA	DASTRES	QQYHRLPLS	-0.26 / -0.48 / -0.40 / -0.62 / -0.52 / -0.39	0/18
KLSQSVLYESRNKNSVA	NASTRED	QQYHRLPLM	-0.33 / -0.31 / -0.52 / -0.64 / -0.34 / -0.33	0/18
KLSQSVMYESRNKNSVA	EASTREQ	QQYHRLPLS	-0.15 / -0.19 / -0.51 / -0.28 / -0.40 / -0.36	1/18 (1.30)
QLSQSVLYESRNKNSVA	NASTRES	QQYHRLPLS	-0.29 / -0.29 / -0.32 / -0.36 / -0.29 / -0.33	1/18 (1.96)
KLSQSVLYESREKNSVA	DASTRES	QQYHRLPLS	0.26 / 0.08 / 0.32 / -0.05 / -0.24 / -0.01	0/18
KVSPSVLYESRNKNSVA	EASTRES	QQYHRLPLS	0.42 / 0.38 / 0.41 / 0.52 / 0.47 / 0.48	1/18 (2.47)
KLVQSVLYESRNKNSVA	NASTREV	QQYHRLPLS	-0.20 / -0.43 / -0.31 / -0.47 / -0.37 / -0.22	1/18 (3.46)
KLSQSWLYESRNKNSVA	NASTRES	QQYHRLPLS	-0.18 / -0.19 / -0.33 / -0.34 / -0.47 / -0.11	2/18 (3.44)
KLEQSNLYESRNKNSVA	NASTRMS	QQYHRLPLS	0.11 / 0.10 / -0.13 / -0.05 / 0.01 / 0.10	2/18 (2.69)
KLSQSGLYESRNKNSVA	NASTRCS	QQYHRLPLS	0.15 / -0.04 / -0.23 / -0.29 / -0.07 / 0.13	0/18
KLSQSVLYESRNSNSVA	NGSTRES	QQYHRLPLS	-0.38 / -0.81 / -0.46 / -0.97 / -1.00 / -0.43	0/18
KLSQSELYESRNKNSVA	NASTRFS	QQYHRLPLS	0.56 / 0.33 / 0.44 / 0.14 / 0.23 / 0.51	0/18
KLPQSWLYESRNKNSVA	NASTRED	QQYHRLPLS	0.07 / -0.07 / -0.14 / -0.18 / -0.02 / 0.10	1/18 (3.83)
KLQFSELYESRNKNSVA	EASTRES	QQYHRLPLS	0.43 / 0.51 / 0.22 / 0.32 / 0.68 / 0.63	0/18
KLSQSWLYESRNKNSVA	EASTRES	QQYHRLPLS	-0.36 / -0.25 / -0.13 / -0.43 / -0.21 / -0.07	0/18
KLEQSQLYESRNKNSVA	NASTREQ	QQYHRLPLS	-0.02 / -0.07 / -0.28 / -0.27 / -0.10 / -0.01	4/18 (2.79)
KLEQGQLYESRNKNSVA	NASTRES	QQYHRLPLS	-0.22 / -0.42 / -0.31 / -0.55 / -0.42 / -0.23	0/18
KLQQSMGYESRNKNSVA	NASTRES	QQYHRLPLS	0.49 / 0.15 / 0.10 / 0.03 / 0.03 / 0.22	1/18 (1.94)
KLSQSFLYESRNKNNVA	NASTRES	QQYHRLPLS	-0.25 / -0.65 / -0.29 / -0.70 / -0.61 / -0.11	0/18
KLSQSVLYESRNPNSVA	NASTRES	QDYHRLPLS	0.45 / 0.36 / 0.41 / 0.40 / 0.41 / 0.44	0/18
KLSQSQLYESRNKNSVA	HASTRLS	QQYHRLPLS	0.71 / 0.37 / 1.11 / -0.01 / 0.37 / -0.02	0/18
KLSQSDLYESRNKNAVA	QASTRES	QQYHRLPLS	-0.15 / -0.36 / -0.39 / -0.50 / -0.35 / -0.27	4/18 (3.16)
KVSQSVLYQSRNKNSVA	NASTRES	QQYHRLPLS	0.11 / 0.28 / 0.08 / -0.23 / -0.17 / 0.23	0/18
KVSQSRLYESRNKNSVA	NASQRES	QQYHRLPLS	0.38 / 0.35 / 0.11 / 0.13 / 0.41 / 0.40	2/18 (3.04)
KLMQSVLYESRNKNSVA	GASTRLS	QQYHRLPLS	0.44 / 0.32 / 0.40 / 0.19 / 0.41 / 0.20	1/18 (1.20)
KLPQSNLYESRNKNSVA	EASQRES	QQYHRLPLS	-0.09 / -0.30 / -0.21 / -0.37 / -0.32 / -0.13	0/18
KFSQSQLYESRNKNSVA	DASQRES	QQYHRLPLS	0.36 / 0.10 / -0.07 / 0.10 / -0.05 / 0.36	2/18 (3.14)

Picked from the list: the 5 lowest averages where every replicate gave a value.

| CDR-L1 | CDR-L2 | CDR-L3 | log10 Kd (nM) by replicate | signal with controls |
|---|---|---|---|---|
| KLSQSVLYESRNSNSVA | NGSTRES | QQYHRLPLS | -0.38 / -0.81 / -0.46 / -0.97 / -1.00 / -0.43 | 0/18 |
| KLSQSWLYESRNKNSVA | NASTRED | QQYHRLPLS | -0.28 / -0.74 / -0.62 / -0.73 / -0.45 / -0.38 | 1/18 (0.96) |
| KLSMSVLYESRNKNSVA | DASQRES | QQYHRLPLS | -0.31 / -0.64 / -0.70 / -0.36 / -0.63 / -0.43 | 0/18 |
| GLSQSVLYESRNKNSVA | NASTRES | QQYHRLPLS | -0.49 / -0.44 / -0.59 / -0.55 / -0.54 / -0.38 | 0/18 |
| KQSQSVLYESRNKNNVA | DASTRES | QQYHRLPLS | -0.26 / -0.48 / -0.40 / -0.62 / -0.52 / -0.39 | 0/18 |

Values of this round are not directly comparable with the first-round values of the same sequences. As a blank, each scFv also met three strains without target: over all light chain designs, 4% of these pairings were detected, typically at 2.64 and seldom below 1.59. For each scFv, signals with the empty controls are counted beside the result, with their mean in brackets. The parent sequence was in this pool as ten entries: three were never detected, three once, and four in most replicates, with averages from 0.34 to 2.37.

Source: Li et al. 2023 (doi:10.1038/s41467-023-39022-2), MIT Lincoln Laboratory and A-Alpha Bio; data file from the FLAb repository.